# Results from PubChem BioAssay AID1875 (Broad Institute, 2009).
# The list shows a part of the results, in another mix than the full data. Calls of active or inactive are those of the source.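 The calls were made as follows: active = lowest replicate activity score at least 50, where 100 means six control SD above control mean; inconclusive = lowest score under 50 but half or more replicates reach 50; inactive = the rest.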
# Experiment: perturbers of mRNA poly(A) processing – luminescence, S. cerevisiae, primary screen (AID 1875);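 also: yeast exposed to compound for 9 h at 30 °C; higher score means more reporter readthrough which indicates perturbed polyadenylation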
# Settings: S. cerevisiae SKY197-pL101 polyadenylation reporter, beta-gal luminescence; at 12 µM; active compounds read high; efflux-impaired pdr1/pdr3 knockout yeast; score 100 = 6 SD above DMSO
row,SMILES,activity score
1,CCC(=O)N1C2C3N(C(=O)CC)C1C1N(C(=O)CC)C(C(N1C(=O)CC)N3C(=O)CC)N2C(=O)CC,inactive: 1.47%
